Experimental data reported in patent US6126956A, “Subcutaneous implant” (priority 1998, dated 2000).

Experiments:
[1] = 600 μg and 1200 μg i.v. boluses
[2] = more potent than morphine; cited from earlier work

Q: With CN1CC[C@]23c4c5ccc(O)c4O[C@H]2C(=O)CC[C@H]3[C@H]1C5 [hydromorphone] as the compound, how does the “time to return to baseline” value [1] read?
A: Its value is ≤ 4 h.

Q: What about the “potency relative to morphine” value [2] of the same compound?
A: Its value is 6-7 times.
